In the library only some 1.9% were active in any assay of this set; here they are far more common.
FGF22 binding = binders of recombinant human FGF22 by thermal shift | SYPRO orange fluorescence; percent of sucrose octasulfate shift, DMSO zero | activity (Tm shift, normalised), % at 9.99 µM | 340,000 tested, 1.5% active | AID 651658;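 active means mean Tm shift, scaled 0 neutral to 100 positive control, at about 1.3% or above, every replicate too, limit read from the data; inconclusive means no clear call, values can overlap the other calls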
ARNT-TACC3 inh = disruptors of human ARNT/TACC3 interaction; AlphaScreen His-ARNT PAS-B/GST-TACC3 binding, luminescence; TACC3 fragment carries E629A point mutation; inhibition, % at 9.99 µM; 390,000 tested, 0.66% active; AID 623870;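 active means mean inhibition of replicates at least 50% and at least half of replicates each reaching 50%; inconclusive means half or more replicates reach 50% but mean below 50%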
PDI inh = blocks human protein disulfide isomerase activity; inhibition, % at 10 µM; 350,000 tested, 0.052% active; PDI insulin aggregation turbidity, A650, 90 min; P07237;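 active means mean inhibition across replicates of 30% or more, whatever share of single replicates reach that level; inconclusive means mean inhibition below 30% while every single replicate reaches 30%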
UUG fidelity = yeast start codon fidelity modulation; actives 0.13% (n = 350,000); activity score, % at 18.7 µM; S. cerevisiae UUG-firefly luciferase reporter, luminescence/redox ratio;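 active = replicate mean at a twofold rise or more, about +100% in these data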;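 note: firefly luciferase made from a UUG start codon reports start codon fidelity; reporter light over untreated wells divided by growth signal over untreated wells; some hits fall short of that in this replicate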
PglD DTNB = PglD (C. jejuni) enzyme inhibition; inhibition, % at 12.5 µM; 360,000 tested, 0.098% active; purified PglD enzyme, DTNB colorimetric CoA detection; AID 602405; in the data active means inhibition above about 16%, passing the limit was not always enough; inconclusive means no clear call, values can overlap the other calls
ERp5 inh = inhibitors of human ERp5 | 350,000 tested, 0.05% active | AID 651711 | inhibition, % at 9.99 µM | Q15084 | ERp5 insulin aggregation, absorbance 650 nm, 90 min;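 active means mean replicate inhibition above about 25%, with every replicate also reaching it, limit read from the data, passing the limit was not always enough; inconclusive means only one of those two criteria met; inactive means neither criterion met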
Each line names hits and unclear results; the compound was inactive in the other large screens.

Cc1cc(NC(=O)CSc2nnc(-c3ccc(O)cc3)o2)no1	ARNT-TACC3 inh 47
Cc1cc(C)cc(-c2nnc(SCC(=O)Nc3cc(C)on3)o2)c1	none
Cc1nc(C(F)(F)F)c(C(=O)N/N=C(\N)c2cccnc2)s1	FGF22 binding 43 (no result: UUG fidelity, PglD DTNB)
COc1cccc(NC(=O)N(C)C[C@@H]2Oc3ncc(C#Cc4ccncc4)cc3C(=O)N([C@H](C)CO)C[C@@H]2C)c1	none (no result: PDI inh, UUG fidelity)
CN(C)C(=O)c1cccc(-c2ccc3c(c2)[C@H]2[C@H](CCN2C(=O)c2ccccc2F)[C@H](CO)N3)c1	none (no result: PDI inh)
CCOc1ccc(C(=O)N2CCN(c3cnn(-c4ccccc4)c(=O)c3Cl)CC2)cc1	FGF22 binding 44 (no result: UUG fidelity, PglD DTNB)
O=C(c1cccc(Br)c1)N1CCN(c2cnn(-c3ccccc3)c(=O)c2Cl)CC1	none (no result: UUG fidelity, PglD DTNB)
NC(=S)N=Nc1c(O)n(CCCl)c2ccccc12	none (no result: UUG fidelity, PglD DTNB)
NC(=S)N=Nc1c(O)n(CCCl)c2ccc(Cl)cc12	FGF22 binding 44
C[C@@H]1CN([C@@H](C)CO)C(=O)Cc2cc(NS(=O)(=O)c3ccc(F)cc3)ccc2O[C@@H]1CN(C)C(=O)Nc1cccc2ccccc12	none (no result: PDI inh)
Cc1nc(SCC(=O)c2cc3ccccc3oc2=O)c(C#N)c(-c2cccs2)c1C(=O)Nc1ccccc1	FGF22 binding 43 (no result: UUG fidelity, PglD DTNB)
O=C(O)CC1S/C(=N/N=C/c2ccccn2)NC1=O (stereo not given)	ARNT-TACC3 inh 71 (no result: UUG fidelity, PglD DTNB)
COCc1cc(SC2CCCCC2)nc(C)n1	FGF22 binding 43 (no result: UUG fidelity, PglD DTNB)
c1ccc(-n2c(Cc3cn4ccsc4n3)nnc2N2CCOCC2)cc1	ARNT-TACC3 inh 45 (no result: FGF22 binding, ERp5 inh)
CC(Oc1ccc2c(-c3ccccc3)cc(=O)oc2c1)C(=O)NCCCN1CCOCC1 (stereo not given)	none
CC(Oc1ccc2c(-c3ccccc3)cc(=O)oc2c1)C(=O)NCCN1CCOCC1 (stereo not given)	FGF22 binding 43
CCCN1[C@H](C(=O)NCCOC)[C@@H](CO)[C@@H]2Cn3c(ccc(-c4ccc(C(=O)N(C)C)cc4)c3=O)[C@@H]21	none (no result: ARNT-TACC3 inh, PDI inh, UUG fidelity)
CCC[C@@H](CN1CCC[C@H]1CN1C(N)=NC[C@H]1CC(C)C)N1C[C@@H]([C@H](C)CC)N(CCCC2CCCC2)C1=N	ERp5 inh 27
COc1ccc(NC(=O)c2cccc(S(=O)(=O)N3CCc4ccccc43)c2)c(OC)c1	FGF22 binding 44 (no result: ARNT-TACC3 inh)
CN(C)S(=O)(=O)c1cccc(C(=O)Nc2ccc(S(=O)(=O)N3CCCC3)cc2)c1	FGF22 binding 44 (no result: UUG fidelity, PglD DTNB)
COc1ccccc1NC(=O)COC(=O)c1ccc(S(=O)(=O)N2CCCCCC2)cc1	FGF22 binding 43 (no result: UUG fidelity, PglD DTNB)
CCOc1ccccc1NC(=O)COC(=O)c1ccc(S(=O)(=O)N2CCCC2)cc1	none
COc1cccc(C(=O)Nc2cc(S(=O)(=O)N3CCCCC3)ccc2OC)c1	FGF22 binding 43 (no result: UUG fidelity, PglD DTNB)
CC(C)C#Cc1cnc2c(c1)C(=O)N([C@H](C)CO)C[C@H](C)[C@H](CN(C)C(=O)Nc1ccc(F)cc1)O2	none (no result: PDI inh)
OC(Cc1ccccc1Br)c1ncc(-c2ccc(Cl)cc2)[nH]1 (stereo not given)	FGF22 binding 2.7 (no result: ARNT-TACC3 inh)
OC(Cc1ccccc1)c1ncc(-c2ccc(Cl)cc2)[nH]1 (stereo not given)	none (no result: ARNT-TACC3 inh)
CCc1nnc(NC(=O)c2ccc(OC)cc2)s1	none
CCc1nnc(NC(=O)c2ccc3nc(CC)c(CC)nc3c2)s1	FGF22 binding 43 (no result: UUG fidelity, PglD DTNB)
O=C1CNC(=O)/C(=C/c2cccs2)N1	FGF22 binding 43 (no result: UUG fidelity, PglD DTNB)
CCSc1nnc(CSc2ncccn2)n1C	FGF22 binding 44 (no result: UUG fidelity, PglD DTNB)
O=C(CSc1nnc2n1CCCCC2)NCc1ccccc1	FGF22 binding 43 (no result: ARNT-TACC3 inh)
Cc1ccc(CNC(=O)CSc2nnc3n2CCCCC3)cc1	none
COC(=O)c1c(C)[nH]c(O)c1C=Nc1ccc(Oc2ccccc2)cc1	FGF22 binding 44 (no result: ARNT-TACC3 inh, UUG fidelity, PglD DTNB)
CCCS(=O)(=O)Nc1cccc(-c2nc3cccnc3s2)c1	ARNT-TACC3 inh 46
O=C(C[C@H]1CC[C@H]2[C@@H](COC[C@H](O)CN2Cc2cccc(Cl)c2)O1)NCC1CCCCC1	none (no result: PDI inh)
O=C(O)c1ccccc1N=Nc1c(O)[nH]c2ccc([N+](=O)[O-])cc12	ARNT-TACC3 inh 47 (no result: FGF22 binding, ERp5 inh)
CCc1ccc2c(c1)C(=O)c1ccccc1C2=O	FGF22 binding 43 (no result: UUG fidelity, PglD DTNB)
CC(C)(C)c1ccc2c(c1)C(=O)c1ccccc1C2=O	none (no result: ARNT-TACC3 inh)
C[C@@H]1CN([C@@H](C)CO)C(=O)c2cc(NC(=O)Cn3cnnn3)ccc2O[C@H]1CN(C)CC1CCCCC1	none (no result: PDI inh)
O=C(C[C@@H]1CC[C@H]2[C@@H](COC[C@@H](O)CN2C(=O)Nc2ccc(Cl)c(Cl)c2)O1)NCc1ccc(Cl)c(Cl)c1	none (no result: PDI inh)
O=C(C[C@H]1CC[C@H]2[C@@H](COC[C@@H](O)CN2C(=O)Nc2ccc(Cl)c(Cl)c2)O1)NCc1ccc(Cl)c(Cl)c1	FGF22 binding 1.3 (no result: PDI inh)
CC[n+]1c(C)sc2c3ccsc3ccc21	FGF22 binding 43 (no result: UUG fidelity, PglD DTNB)
O=C(COC(=O)c1cc(-c2cccs2)nc2ccccc12)NC1CCS(=O)(=O)C1 (stereo not given)	ARNT-TACC3 inh 49 (no result: UUG fidelity, PglD DTNB)
O=C(COC(=O)c1cc(-c2cccc3ccccc23)nc2ccccc12)NC1CCS(=O)(=O)C1 (stereo not given)	none (no result: UUG fidelity, PglD DTNB)
O=C(NC1CCCC1)[C@@H]1[C@@H](CO)[C@@H]2Cn3c(ccc(-c4ccccc4)c3=O)[C@H]1N2	none (no result: FGF22 binding, ARNT-TACC3 inh, PDI inh, UUG fidelity, PglD DTNB)
O=C1CCn2c1c(O)c1ccccc1c2=O	ARNT-TACC3 inh 52 (no result: UUG fidelity, PglD DTNB)
COc1ccc(C2c3ccc(O)cc3Oc3ncn4nc(-c5ccccn5)nc4c32)cc1 (stereo not given)	none
N=c1c2c(ncn1CCN1CCOCC1)Oc1cc(O)ccc1C2c1ccccc1 (stereo not given)	none
COc1ccc(C2c3ccc(O)cc3Oc3ncn(CCN4CCOCC4)c(=N)c32)cc1OC (stereo not given)	PDI inh 54
COc1ccc(C2c3ccc(O)cc3Oc3ncn4nc(-c5ccccn5)nc4c32)cc1OC (stereo not given)	ARNT-TACC3 inh 59, PDI inh inconclusive (no result: UUG fidelity, PglD DTNB)
C[C@@H]1CN([C@@H](C)CO)S(=O)(=O)c2ccc(-c3cccnc3)cc2O[C@@H]1CN(C)Cc1cncnc1	none (no result: PDI inh)
Cc1noc(C)c1S(=O)(=O)Nc1ccc2c(c1)C(=O)N([C@H](C)CO)C[C@H](C)[C@H](CN(C)S(=O)(=O)c1ccccc1)OCCCC[C@@H](C)O2	none (no result: PDI inh)
COc1cc(/C=C/C(=O)O)cc(S(=O)(=O)NC2CCCC2)c1OC	none (no result: UUG fidelity, PglD DTNB)
COc1ccc(/C=C/C(=O)O)cc1S(=O)(=O)NC1CCS(=O)(=O)C1 (stereo not given)	FGF22 binding 44 (no result: UUG fidelity, PglD DTNB)
O=C(NCc1ccco1)C1CCCN1C(=O)Nc1ccc(Cl)cc1 (stereo not given)	none (no result: UUG fidelity, PglD DTNB)
O=C(NCc1ccco1)C1CCCN1C(=O)Nc1cccc(Cl)c1 (stereo not given)	FGF22 binding 43 (no result: UUG fidelity, PglD DTNB)
O=C(COc1ccccc1)N/N=C/c1ccc([N+](=O)[O-])o1	none (no result: UUG fidelity, PglD DTNB)

Assay outcomes from PubChem.
